According to ChEMBL document CHEMBL1141954, “Indole-2-carboxamidines as novel NR2B selective NMDA receptor antagonists” (Bioorg Med Chem Lett, 2005):

Target: Glutamate NMDA receptor
Test: Inhibition of NMDA-evoked intracellular calcium increase in rat cortical cells
Format: functional, cell-based

IC50: 131 nM
Compound: O=C(/C=C/c1ccc(O)cc1)N1CCC(Cc2ccccc2)CC1
